We go through one sequence from ChEMBL document CHEMBL1154428, “Cloning, nucleotide sequencing, and analysis of the AcrAB-TolC efflux pump of Enterobacter cloacae and determination of its involvement in antibiotic resistance in a clinical isolate” (2007).

One may read the MIC as the lowest concentration that inhibits growth of the organism. Read a high MIC as a less susceptible organism.

The assay concerns Enterobacter cloacae. The conditions noted are these: EcDC64.

As to GENTAMICIN, the lowest concentration to inhibit growth (MIC) was 0.5 µg/mL.
